Data published in ChEMBL document CHEMBL5728057, “3-((hetero-)aryl)-8-amino-2-oxo-1,3-diaza-spiro-[4.5]-decane derivatives” (2020).

Chains of the proteins cited; added tags and fusions are not shown.
UniProt P35372, whole entry, looked up: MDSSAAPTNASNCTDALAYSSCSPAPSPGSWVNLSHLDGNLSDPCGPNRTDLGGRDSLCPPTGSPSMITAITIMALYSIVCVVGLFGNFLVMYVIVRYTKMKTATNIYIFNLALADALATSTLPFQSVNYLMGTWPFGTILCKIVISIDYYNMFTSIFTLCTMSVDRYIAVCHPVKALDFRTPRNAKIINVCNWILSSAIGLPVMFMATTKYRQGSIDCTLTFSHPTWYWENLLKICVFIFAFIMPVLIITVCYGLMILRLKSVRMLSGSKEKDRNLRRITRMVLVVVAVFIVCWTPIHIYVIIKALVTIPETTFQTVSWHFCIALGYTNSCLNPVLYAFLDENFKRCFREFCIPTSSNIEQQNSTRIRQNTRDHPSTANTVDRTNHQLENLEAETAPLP

Molecular target: Mu-type opioid receptor (Homo sapiens, UniProt P35372)
Experiment: Human Mu-Opioid Peptide (hMOP) Receptor Binding Assay: The hMOP receptor binding assay was performed as homogeneous SPA-assay (scintillation proximity assay) using the assay buffer 50 mM TRIS-HCl (pH 7.4) supplemented with […] bovine serum albumin (Sigma-Aldrich Co. St. Louis. Mo.). The final assay volume (250 l/well) included 1 nM of [N-allyl-2.3-3H]naloxone as ligand (PerkinElmer Life Sc

SMILES | Ki
CN[C@]1(c2cccc(F)c2)CC[C@]2(CC1)CN(c1cnc(C(F)(F)F)nc1)C(=O)N2CC1CCC1 | 455 nM
Cc1cnc(N2C[C@]3(CC[C@](c4ccccc4)(N(C)C)CC3)NC2=O)cn1 | 3130 nM
CN[C@]1(c2ccccc2)CC[C@]2(CC1)CN(c1cnc(N3CCOCC3)c(C(F)(F)F)c1)C(=O)N2 | 6910 nM
CN1CCN(c2ccc(N3C[C@]4(CC[C@](c5ccccc5)(N(C)C)CC4)NC3=O)cn2)CC1 | 695 nM
CN(C)[C@]1(c2ccccc2)CC[C@]2(CC1)CN(c1cccc(C(N)=O)c1)C(=O)N2CC1CCC1 | 18 nM
CN(C)[C@]1(c2ccccc2)CC[C@]2(CC1)CN(c1ccc(C(F)(F)F)cc1S(C)(=O)=O)C(=O)N2CC1CCC1 | 22 nM
CN(C)[C@]1(c2cccc(F)c2)CC[C@]2(CC1)CN(c1cnc(C(F)(F)F)nc1)C(=O)N2CC1CC1 | 3630 nM
CN(C)[C@]1(c2ccccc2)CC[C@]2(CC1)CN(c1cnc(C#N)cn1)C(=O)N2CC1CCC1 | 250 nM
CN(CCO)c1ncc(N2C[C@]3(CC[C@](c4ccccc4)(N(C)C)CC3)NC2=O)cc1C(F)(F)F | 1800 nM
CN(C)[C@]1(c2ccccc2)CC[C@]2(CC1)CN(c1cnc(N3CCCCC3)nc1)C(=O)N2 | 3610 nM
CN(C)[C@]1(c2ccccc2)CC[C@]2(CC1)CN(c1ncc(C(N)=O)cn1)C(=O)N2CC1CCC1 | 45 nM
COc1ccc(N2C[C@]3(CC[C@](c4ccccc4)(N(C)C)CC3)N(CC3CCC3)C2=O)c(OC)c1 | 43.5 nM
CN(C)[C@]1(c2ccccc2)CC[C@]2(CC1)CN(c1cnc(C#N)nc1)C(=O)N2CC1(C)CCC1 | 220 nM
CNC(=O)c1ccc(N2C[C@]3(CC[C@](c4ccccc4)(N(C)C)CC3)N(CC3CCC3)C2=O)cc1 | 30 nM
CN(C)[C@]1(c2ccccc2)CC[C@]2(CC1)CN(c1ccnc(C#N)n1)C(=O)N2CC1CCC1 | 38.5 nM
CN(C)[C@]1(c2ccccc2)CC[C@]2(CC1)CN(c1cnc(C#N)nc1)C(=O)N2CC1(O)CCC1 | 39 nM
COCCOCCOCCOCCNC(=O)c1ncc(N2C[C@]3(CC[C@](c4ccccc4)(N(C)C)CC3)N(CC3(O)CCC3)C2=O)cn1 | 78 nM
CN[C@]1(c2cccc(F)c2)CC[C@]2(CC1)CN(c1cnc(C(F)(F)F)nc1)C(=O)N2CC1CC1 | 1440 nM
CN(C)[C@]1(c2ccccc2)CC[C@]2(CC1)CN(c1cnc(N3CCOCC3)c(F)c1)C(=O)N2 | 4490 nM
CN(C)[C@]1(c2ccccc2)CC[C@]2(CC1)CN(c1ccc(-c3cccc4c3CC(=O)N4)nc1)C(=O)N2 | 1240 nM
CN1CCN(c2ncc(N3C[C@]4(CC[C@](c5ccccc5)(N(C)C)CC4)NC3=O)cn2)CC1 | 1220 nM

SMILES | Ki
CN(C)C(=O)CN1C(=O)N(c2cnc(C#N)nc2)C[C@]12CC[C@](c1ccccc1)(N(C)C)CC2 | 775 nM
CN(C)[C@]1(c2ccccc2)CC[C@]2(CC1)CN(c1ccccc1C(N)=O)C(=O)N2CC1CCC1 | 41 nM
CN[C@]1(c2ccccc2)CC[C@]2(CC1)CN(c1cnc(C#N)nc1OC)C(=O)N2CC1(O)CCC1 | 170 nM
CN(C)[C@]1(c2ccccc2)CC[C@]2(CC1)CN(c1cc(C#N)ncn1)C(=O)N2CC1CCC1 | 170 nM
COC(=O)c1cccc(N2C[C@]3(CC[C@](c4ccccc4)(N(C)C)CC3)NC2=O)c1 | 2480 nM
CN(C)[C@]1(c2cccs2)CC[C@]2(CC1)CN(c1cnc(-c3cccc4c3CC(=O)N4)nc1)C(=O)N2 | 5260 nM
Cc1nc(N2CCNC(=O)C2)ncc1N1C[C@]2(CC[C@](c3ccccc3)(N(C)C)CC2)NC1=O | 4090 nM
CCN(C)[C@]1(c2ccccc2)CC[C@]2(CC1)CN(c1cnc(C#N)nc1)C(=O)N2CC1CCC1 | 1050 nM
CN(C)[C@]1(c2ccccc2)CC[C@]2(CC1)CN(c1ccc(S(C)(=O)=O)cc1F)C(=O)N2 | 3570 nM
CN[C@]1(c2ccccc2)CC[C@]2(CC1)CN(c1ccc(S(C)(=O)=O)cc1)C(=O)N2CC1CCC1 | 59 nM
CN(C)[C@]1(c2ccccc2)CC[C@]2(CC1)CN(c1ccc3[nH]c(N4CCOCC4)nc3c1)C(=O)N2 | 925 nM
CN(C)[C@]1(c2ccccc2)CC[C@]2(CC1)CN(c1cnc(N3CCOCC3)nc1)C(=O)N2CC1(O)CCC1 | 18 nM
Cc1cc(C(F)(F)F)ncc1N1C[C@]2(CC[C@](c3ccccc3)(N(C)C)CC2)N(CC(=O)N2CCCC2)C1=O | 2870 nM
Cc1cn2cc(N3C[C@]4(CC[C@](c5ccccc5)(N(C)C)CC4)N(CC4CCC4)C3=O)ncc2n1 | 24 nM
CN(C)[C@]1(c2ccccc2)CC[C@]2(CC1)CN(c1cccc3cnccc13)C(=O)N2 | 2320 nM
Cc1cc(N2C[C@]3(CC[C@](c4ccccc4)(N(C)C)CC3)NC2=O)cnc1N1CCOCC1 | 5640 nM
CN(C)[C@]1(c2ccccc2)CC[C@]2(CC1)CN(c1ncc(C(F)(F)F)cc1F)C(=O)N2 | 3780 nM
CN(C)[C@]1(c2ccccc2)CC[C@]2(CC1)CN(c1cnc3c(ccn3S(C)(=O)=O)c1)C(=O)N2 | 1480 nM
CN(C)[C@]1(c2ccccc2)CC[C@]2(CC1)CN(c1cnc(C(F)(F)F)nc1)C(=O)N2CC1(O)CCC1 | 41 nM
CN(C)[C@]1(c2ccccc2)CC[C@]2(CC1)CN(c1cnc(N3CCOCC3)c(C(F)(F)F)c1)C(=O)N2 | 2580 nM
CN(Cc1ccccc1)c1ncc(N2C[C@]3(CC[C@](c4ccccc4)(N(C)C)CC3)NC2=O)cn1 | 1910 nM

SMILES | Ki
CN(C)C(=O)c1ccc(N2C[C@]3(CC[C@](c4ccccc4)(N(C)C)CC3)N(CC3CCC3)C2=O)cc1 | 10.4 nM
CN(C)[C@]1(c2ccccc2)CC[C@]2(CC1)CN(c1ccc(-c3cccc4c3CC(=O)N4)cn1)C(=O)N2 | 735 nM
C/C=C(\C)[C@]1(N(C)C)CC[C@@]2(CC1)CN(c1cnc(NCC(N)=O)nc1)C(=O)N2 | 3510 nM
CC(=O)n1ccc2c(N3C[C@]4(CC[C@](c5ccccc5)(N(C)C)CC4)NC3=O)cccc21 | 4800 nM
CC(=O)N1CCN(c2cc(C)c(N3C[C@]4(CC[C@](c5ccccc5)(N(C)C)CC4)NC3=O)cn2)CC1 | 2980 nM
CN(C)[C@]1(c2ccccc2)CC[C@]2(CC1)CN(c1cnc(N3CCOCC3)nc1C(F)(F)F)C(=O)N2 | 7860 nM
Cc1ncc(N2C[C@]3(CC[C@](c4ccccc4)(N(C)C)CC3)NC2=O)c(NCC(N)=O)n1 | 6830 nM
CN(C)[C@]1(c2ccccc2)CC[C@]2(CC1)CN(c1ccc(C#N)nc1)C(=O)N2CC1(C#N)CCC1 | 38 nM
CN(C)[C@]1(c2ccccc2)CC[C@]2(CC1)CN(c1ccc(C(F)(F)F)nc1)C(=O)N2CC1CCC1 | 107 nM
CN(C)[C@]1(c2ccccc2)CC[C@]2(CC1)CN(c1cnc(N3CCN(CCO)CC3)nc1)C(=O)N2 | 2000 nM
CN(C)[C@]1(c2ccccc2)CC[C@]2(CC1)CN(c1ncc(-c3cccc4c3CC(=O)N4)cc1F)C(=O)N2 | 1660 nM
COc1ncc(N2C[C@]3(CC[C@](c4ccccc4)(N(C)C)CC3)NC2=O)cn1 | 5690 nM
COc1ncc(N2C[C@]3(CC[C@](c4ccccc4)(N(C)C)CC3)N(CC3(O)CCC3)C2=O)cn1 | 32.5 nM
COC(=O)c1ccc(N2C[C@]3(CC[C@](c4ccccc4)(N(C)C)CC3)NC2=O)cc1 | 5120 nM
CN(C)[C@]1(c2ccccc2)CC[C@]2(CC1)CN(c1cnc(C(=O)N3CCNCC3)nc1)C(=O)N2 | 2520 nM
CN(C)[C@]1(c2ccccc2)CC[C@]2(CC1)CN(c1ccc(C(N)=O)cc1)C(=O)N2CC1CCC1 | 14.5 nM
CN[C@]1(c2ccccc2)CC[C@]2(CC1)CN(c1cnc(C#N)nc1OC)C(=O)N2CC1CCC1 | 120 nM
COc1ccc(N2C[C@]3(CC[C@](c4ccccc4)(N(C)C)CC3)N(CC3CCC3)C2=O)c(C#N)c1 | 47 nM
CN(C)[C@]1(c2ccccc2)CC[C@]2(CC1)CN(c1ccc(C#N)cc1)C(=O)N2CC1(O)CCC1 | 65 nM
CN(C)[C@]1(c2ccccc2)CC[C@]2(CC1)CN(c1ncc(F)cn1)C(=O)N2CC1CCC1 | 38.5 nM
CN(C)[C@]1(c2ccccc2)CC[C@]2(CC1)CN(c1ccc(S(C)(=O)=O)cc1C#N)C(=O)N2CC1CCC1 | 23 nM

SMILES | Ki
Cc1ccccc1N1C[C@]2(CC[C@](c3ccccc3)(N(C)C)CC2)NC1=O | 2210 nM
CC(C)CN1C(=O)N(c2cnc(C#N)nc2)C[C@]12CC[C@](c1ccccc1)(N(C)C)CC2 | 145 nM
COC1(CCN2C(=O)N(c3cnc(C)nc3)C[C@]23CC[C@](c2ccccc2)(N(C)C)CC3)CCC1 | 20 nM
CN(C)[C@]1(c2ccccc2)CC[C@]2(CC1)CN(c1cnc(C(N)=O)nc1)C(=O)N2CC1CCC1 | 12 nM
CN(C)[C@]1(c2ccccc2)CC[C@]2(CC1)CN(c1ccccc1S(C)(=O)=O)C(=O)N2 | 2260 nM
CN(C)[C@]1(c2ccccc2)CC[C@]2(CC1)CN(c1cnccc1S(C)(=O)=O)C(=O)N2 | 4000 nM
CC(=O)N1CCN(c2ncc(N3C[C@]4(CC[C@](c5ccccc5)(N(C)C)CC4)NC3=O)cn2)CC1 | 5840 nM
CN(C)[C@]1(c2ccccc2)CC[C@]2(CC1)CN(c1nc(-c3ccccc3)cs1)C(=O)N2 | 1410 nM
COc1ncc(N2C[C@]3(CC[C@](c4ccccc4)(N(C)C)CC3)N(CC3CCC3)C2=O)cn1 | 35.3 nM
CN(CCO)c1ncc2cc(N3C[C@]4(CC[C@](c5ccccc5)(N(C)C)CC4)NC3=O)ccc2n1 | 1720 nM
CN1CCN(c2ccc(N3C[C@]4(CC[C@](c5ccccc5)(N(C)C)CC4)NC3=O)cn2)CC1=O | 3840 nM
CN(C)[C@]1(c2ccccc2)CC[C@]2(CC1)CN(c1ccc(C(N)=O)cc1)C(=O)N2 | 2220 nM
CN(C)[C@]1(c2ccccc2)CC[C@]2(CC1)CN(c1ccc(S(C)(=O)=O)cc1)C(=O)N2CC1CCC1 | 330 nM
CN(C)[C@]1(c2ccccc2)CC[C@]2(CC1)CN(c1ccc(C#N)nc1)C(=O)N2CC1(O)CCC1 | 49 nM
CN(C)[C@]1(c2cccs2)CC[C@]2(CC1)CN(c1cnc(N3CCOCC3)nc1)C(=O)N2 | 3360 nM
COc1cnc(N2C[C@]3(CC[C@](c4ccccc4)(N(C)C)CC3)N(CC3CCC3)C2=O)cn1 | 260 nM
CN[C@]1(c2ccccc2)CC[C@]2(CC1)CN(c1ccc(S(C)(=O)=O)cc1F)C(=O)N2CC1CC1 | 300 nM
CN(C)[C@]1(c2ccccc2)CC[C@]2(CC1)CN(c1c(F)cc(C(N)=O)cc1F)C(=O)N2 | 2100 nM
CN(C)[C@]1(c2ccccc2)CC[C@]2(CC1)CN(c1ccccc1C#N)C(=O)N2 | 1880 nM
COCCCN1C(=O)N(c2cnc(C#N)nc2OC)C[C@]12CC[C@](c1ccccc1)(N(C)C)CC2 | 335 nM
